Values quoted from earlier work as cited in US20220291182A1.

Test system: dogs
Settings: concentration in air detectable by dogs

2,3-dimethy1-2,3-dinitrobutane
detectable by dogs in air: explosives (detectable by dogs at 0.5 ppb in air)

Some compounds may have been tested in ways that are not shown here.
